Reference: patent publication US9932309B2, “2-oxo-3,4-dihydropyridine-5-carboxylates and their use” (UNIVERSITE DE LILLE 2 DROIT ET SANTE, priority 2014, dated 2018)

Assays:
hTGR5 = target: T1, hTGR5 (Homo sapiens, UniProt Q8TDU6); assay: TGR5/CRE Luciferase Assay (hTGR5); format: cell-based; settings: percentage of the 10 μM LCA value; HEK 293 cells transfected with hTGR5
T1 construct: expressed in transfected cells; host or cells: HEK293 cells, transiently co-transfected with the pCRE TA-Luciferase reporter
T1 sequence (Q8TDU6 1-330): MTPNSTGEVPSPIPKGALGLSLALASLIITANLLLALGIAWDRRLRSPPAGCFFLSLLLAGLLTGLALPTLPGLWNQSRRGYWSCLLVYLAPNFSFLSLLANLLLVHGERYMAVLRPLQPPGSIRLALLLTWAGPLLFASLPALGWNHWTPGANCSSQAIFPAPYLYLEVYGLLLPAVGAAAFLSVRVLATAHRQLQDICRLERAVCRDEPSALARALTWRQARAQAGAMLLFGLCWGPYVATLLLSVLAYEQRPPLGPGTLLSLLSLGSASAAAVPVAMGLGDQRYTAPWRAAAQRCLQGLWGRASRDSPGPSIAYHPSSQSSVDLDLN

mTGR5 = target: T2, mTGR5 (Mus musculus, UniProt Q80SS6); assay: TGR5/CRE Luciferase Assay (mTGR5); format: cell-based; settings: percentage of the 10 μM LCA value; HEK 293 cells transfected with mTGR5
T2 construct: expressed in transfected cells; host or cells: HEK293 cells, transiently co-transfected with the pCRE TA-Luciferase reporter
T2 sequence (Q80SS6 1-329): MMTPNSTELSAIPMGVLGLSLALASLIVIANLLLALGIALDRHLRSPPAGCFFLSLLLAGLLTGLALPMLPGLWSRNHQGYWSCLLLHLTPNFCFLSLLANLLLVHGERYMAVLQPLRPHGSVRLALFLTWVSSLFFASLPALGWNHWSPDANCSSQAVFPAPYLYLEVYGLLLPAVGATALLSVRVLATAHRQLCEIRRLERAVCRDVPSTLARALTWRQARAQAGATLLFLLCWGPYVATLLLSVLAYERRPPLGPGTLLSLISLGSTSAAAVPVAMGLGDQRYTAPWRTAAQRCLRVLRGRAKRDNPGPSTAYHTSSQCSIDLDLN

hTGR5 % trans (hTGR5) | mTGR5 % trans (mTGR5) | Compound
78% | 83% | COCCN1C(=O)CC(c2ccc(Cl)cc2)C(C(=O)OCc2cccc(C(F)(F)F)c2)=C1C (centres unmarked) [Example 91, [3-(trifluoromethyl)phenyl]methyl 4-(4-chlorophenyl)-1-(2-methoxyethyl)-6-methyl-2-oxo-3,4-dihydropyridine-5-carboxylate]
49% |  | CC1=C(C(=O)OCc2ccccc2)C(c2ccc(Cl)cc2F)CC(=O)N1 (centres unmarked) [Compound 15, benzyl 4-(4-chloro-2-fluoro-phenyl)-6-methyl-2-oxo-3,4-dihydro-1H-pyridine-5-carboxylate]
75% | 78% | COCCN1C(=O)CC(c2ccc(Cl)cc2)C(C(=O)OCc2ccccc2)=C1C (centres unmarked) [Compound 37, Benzyl 4-(4-chlorophenyl)-1-(2-methoxyethyl)-6-methyl-2-oxo-3,4-dihydropyridine-5-carboxylate]
82% |  | COCCN1C(=O)CC(c2ccc(Cl)cc2)C(C(=O)OCc2ccccc2OC)=C1C (centres unmarked) [Compound 64, (2-methoxyphenyl)methyl 4-(4-chlorophenyl)-1-(2-methoxyethyl)-6-methyl-2-oxo-3,4-dihydropyridine-5-carboxylate]
19% | 11% | COc1ccc(C2CC(=O)NC(C)=C2C(=O)OCc2ccccc2)cc1 (centres unmarked) [Compound 6, 4-(4-Methoxy-phenyl)-2-methyl-6-oxo-1,4,5,6-tetrahydro-pyridine-3-carboxylic acid benzyl ester]
 | 59% | COCCN1C(=O)CC(c2ccc(Cl)cc2)C(C(=O)OCc2ccc(C(F)(F)F)cc2)=C1C (centres unmarked) [Example 92, [4-(trifluoromethyl)phenyl]methyl 4-(4-chlorophenyl)-1-(2-methoxyethyl)-6-methyl-2-oxo-3,4-dihydropyridine-5-carboxylate]
83% | 96% | COCCN1C(=O)CC(c2ccc(Cl)cc2)C(C(=O)OCc2ccc3ccccc3c2)=C1C (centres unmarked) [Example 106, 2-naphthylmethyl 4-(4-chlorophenyl)-1-(2-methoxyethyl)-6-methyl-2-oxo-3,4-dihydropyridine-5-carboxylate]
 | 78% | CC1=C(C(=O)OCc2ccccc2)C(c2ccc(Cl)cc2)CC(=O)N1CC1CC1 (centres unmarked) [Compound 43, Benzyl 4-(4-chlorophenyl)-1-(cyclopropylmethyl)-6-methyl-2-oxo-3,4-dihydropyridine-5-carboxylate]
72% | 72% | COCCN1C(=O)CC(c2ccc(Cl)cc2)C(C(=O)OCc2ccc(-c3ccccc3)cc2)=C1C (centres unmarked) [Example 108, (4-phenylphenyl)methyl 4-(4-chlorophenyl)-1-(2-methoxyethyl)-6-methyl-2-oxo-3,4-dihydropyridine-5-carboxylate]
 | 67% | COCCN1C(=O)CC(c2ccc(Cl)cc2)C(C(=O)OCc2cccc(C)c2)=C1C (centres unmarked) [Example 99, m-tolylmethyl 4-(4-chlorophenyl)-1-(2-methoxyethyl)-6-methyl-2-oxo-3,4-dihydropyridine-5-carboxylate]
91% | 86% | COCCN1C(=O)CC(c2ccc(Cl)cc2)C(C(=O)OCc2ccccc2C)=C1C (centres unmarked) [Example 98, o-tolylmethyl 4-(4-chlorophenyl)-1-(2-methoxyethyl)-6-methyl-2-oxo-3,4-dihydropyridine-5-carboxylate]
101% |  | COc1ccccc1COC(=O)C1=C(C)N(C[C@H]2CCCO2)C(=O)C[C@H]1c1ccc(Cl)cc1 (racemic) [Compound 67, (2-methoxyphenyl)methyl (4S)-4-(4-chlorophenyl)-6-methyl-2-oxo-1-[[(2R)-tetrahydrofuran-2-yl]methyl]-3,4-dihydropyridine-5-carboxylate]
72% | 67% | CC1=C(C(=O)OCc2ccccc2)C(c2ccc(Cl)cc2)CC(=O)N1C (centres unmarked) [Compound 17, 4-(4-Chloro-phenyl)-1,2-dimethyl-6-oxo-1,4,5,6-tetrahydro-pyridine-3-carboxylic acid benzyl ester]
